According to patent US10197581B2, “Vitamin D assays” (Enzo Life Sciences, Inc., priority 2013, dated 2019):

Columns and labels:
[1] = assay type: physicochemical
[2] = target: T1, vitamin D binding protein (DBP) (Homo sapiens, UniProt P02774); experiment: Release of bound 25OHD3 from DBP in serum samples at varied release reagent concentrations (ELISA); assay type: biochemical; set-up: human serum containing 20 or 40 ng/mL 25OHD3 were treated with the various dissociation buffers; from tissue; host or cells: human serum; settings: major release reagents in combination
T1 sequence (P02774 17-474): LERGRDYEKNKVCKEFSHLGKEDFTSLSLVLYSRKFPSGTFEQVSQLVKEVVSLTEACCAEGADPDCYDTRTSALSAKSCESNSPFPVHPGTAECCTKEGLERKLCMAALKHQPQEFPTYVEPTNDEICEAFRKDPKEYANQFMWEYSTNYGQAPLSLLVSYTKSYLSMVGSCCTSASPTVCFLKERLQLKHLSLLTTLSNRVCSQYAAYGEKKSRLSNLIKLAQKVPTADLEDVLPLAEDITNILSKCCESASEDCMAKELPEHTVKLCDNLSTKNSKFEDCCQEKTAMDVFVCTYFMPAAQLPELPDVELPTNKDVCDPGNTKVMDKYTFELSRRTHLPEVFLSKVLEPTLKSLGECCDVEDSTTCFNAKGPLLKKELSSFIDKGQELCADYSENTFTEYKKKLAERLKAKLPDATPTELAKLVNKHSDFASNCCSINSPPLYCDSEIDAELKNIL

[3] = target: T1, vitamin D binding protein (DBP); experiment: as above; assay type: biochemical; set-up: human serum containing 20 or 40 ng/mL 25OHD3 were treated with the various dissociation buffers; from tissue; host or cells: human serum; settings: for percent inhibition by released 25OHD: reagent at 12% and higher (up to 15%)
[4] = target: T1, vitamin D binding protein (DBP); experiment: Screening of dissociation buffer components (release reagents) in the 25OHD ELISA; assay type: biochemical; settings: component of dissociation buffer

Substance: 1-ethyl-3-methylpyridinium ethyl sulfate
- stability of dissociation buffer [1]: stable and could be stored at room temperature for weeks with no change in efficacy in the assay
- optimal concentration for dissociation buffer formulation [2]: about 15%
- percent inhibition by released 25OHD ([3]; 20 ng/mL samples): 17%
- percent inhibition by released 25OHD ([3]; 40 ng/mL samples): 22%
- best percentage of individual release reagent (greatest gains in 25OHD release) ([3]; single release reagent in dissociation buffer): 12%
- release of 25OHD from DBP and maintaining 25OHD availability for antibody binding [4]: effective and generally compatible with the assay
